Results: article PMC6066304

Molecular target: Arabidopsis thaliana plant cysteine oxidase 4 (Arabidopsis thaliana) (UniProt Q9SJI9)

**Q.** How did the Km for AtRAP2(2–15); initial rates of N-terminal cysteine oxidation by LC-MS, Michaelis–Menten fit with substrate inhibition, atmospheric O2, pH 8.0, 25 °C turn out when “AtRAP2(2–15), 14-amino acid peptide corresponding to the methionine excised N terminus of AtRAP2.2 and AtRAP2.12” was run?
**A.** 0.69 mM
